# Test results reported in paper PMC10009755, “Discovery and Characterization of BAY-805, a Potent and Selective Inhibitor of Ubiquitin-Specific Protease USP21” (Journal of Medicinal Chemistry, 2023).
# Protein sequences, listed by entry. Tags and fused reporters are not part of them. Lines headed by an entry give the natural chain unless they say otherwise; changes in a name come on top. Residues count along the entry.
# UniProt Q8TD19: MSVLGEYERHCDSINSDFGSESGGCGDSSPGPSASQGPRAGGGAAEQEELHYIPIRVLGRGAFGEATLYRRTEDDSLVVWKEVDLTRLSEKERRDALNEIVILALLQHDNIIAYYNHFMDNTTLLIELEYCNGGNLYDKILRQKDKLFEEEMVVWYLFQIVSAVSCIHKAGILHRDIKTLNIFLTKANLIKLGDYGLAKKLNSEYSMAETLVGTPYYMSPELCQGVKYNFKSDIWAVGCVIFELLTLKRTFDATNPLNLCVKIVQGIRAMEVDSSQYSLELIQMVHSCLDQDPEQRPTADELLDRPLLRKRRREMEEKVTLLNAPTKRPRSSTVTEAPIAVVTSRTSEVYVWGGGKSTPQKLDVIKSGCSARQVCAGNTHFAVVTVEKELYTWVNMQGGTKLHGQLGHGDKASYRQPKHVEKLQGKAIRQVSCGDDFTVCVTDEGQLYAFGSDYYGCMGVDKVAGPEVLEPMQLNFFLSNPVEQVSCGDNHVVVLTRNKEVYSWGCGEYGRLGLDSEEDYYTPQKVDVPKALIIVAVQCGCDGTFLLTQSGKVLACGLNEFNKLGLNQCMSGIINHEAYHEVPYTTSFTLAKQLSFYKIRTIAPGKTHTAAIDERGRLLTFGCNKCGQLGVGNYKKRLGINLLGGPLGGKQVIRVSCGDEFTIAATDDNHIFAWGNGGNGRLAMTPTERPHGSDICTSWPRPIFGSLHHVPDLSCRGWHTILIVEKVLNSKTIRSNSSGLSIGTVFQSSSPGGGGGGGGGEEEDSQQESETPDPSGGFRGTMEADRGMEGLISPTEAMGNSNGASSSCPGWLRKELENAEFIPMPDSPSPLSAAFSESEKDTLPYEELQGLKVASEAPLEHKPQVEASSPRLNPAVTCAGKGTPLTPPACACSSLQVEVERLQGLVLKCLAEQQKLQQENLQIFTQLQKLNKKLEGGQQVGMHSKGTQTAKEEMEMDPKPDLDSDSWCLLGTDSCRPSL
# UniProt Q9NY57, whole entry: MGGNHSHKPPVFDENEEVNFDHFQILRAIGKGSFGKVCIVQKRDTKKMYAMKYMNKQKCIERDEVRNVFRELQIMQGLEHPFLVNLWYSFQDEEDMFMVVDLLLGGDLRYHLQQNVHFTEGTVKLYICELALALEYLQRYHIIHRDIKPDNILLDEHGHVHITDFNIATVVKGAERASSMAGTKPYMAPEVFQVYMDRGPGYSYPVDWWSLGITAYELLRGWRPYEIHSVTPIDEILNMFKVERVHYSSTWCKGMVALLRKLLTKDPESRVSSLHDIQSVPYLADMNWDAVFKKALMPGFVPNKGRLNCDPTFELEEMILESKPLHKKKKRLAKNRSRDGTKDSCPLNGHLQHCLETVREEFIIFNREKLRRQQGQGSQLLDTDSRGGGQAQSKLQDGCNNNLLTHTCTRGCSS
# UniProt Q9UQ07: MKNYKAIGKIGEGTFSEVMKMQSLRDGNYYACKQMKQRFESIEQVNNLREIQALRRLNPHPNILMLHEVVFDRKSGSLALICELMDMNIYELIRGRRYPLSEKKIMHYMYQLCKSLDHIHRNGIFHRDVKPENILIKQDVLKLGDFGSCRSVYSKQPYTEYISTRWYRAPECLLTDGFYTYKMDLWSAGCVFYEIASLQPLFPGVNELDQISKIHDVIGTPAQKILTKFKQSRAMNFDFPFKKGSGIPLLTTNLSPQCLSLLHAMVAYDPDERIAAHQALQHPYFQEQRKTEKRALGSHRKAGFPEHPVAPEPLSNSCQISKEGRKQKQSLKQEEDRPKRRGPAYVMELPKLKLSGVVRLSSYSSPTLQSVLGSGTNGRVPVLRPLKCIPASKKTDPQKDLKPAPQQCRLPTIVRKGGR
# UniProt Q2M2I8: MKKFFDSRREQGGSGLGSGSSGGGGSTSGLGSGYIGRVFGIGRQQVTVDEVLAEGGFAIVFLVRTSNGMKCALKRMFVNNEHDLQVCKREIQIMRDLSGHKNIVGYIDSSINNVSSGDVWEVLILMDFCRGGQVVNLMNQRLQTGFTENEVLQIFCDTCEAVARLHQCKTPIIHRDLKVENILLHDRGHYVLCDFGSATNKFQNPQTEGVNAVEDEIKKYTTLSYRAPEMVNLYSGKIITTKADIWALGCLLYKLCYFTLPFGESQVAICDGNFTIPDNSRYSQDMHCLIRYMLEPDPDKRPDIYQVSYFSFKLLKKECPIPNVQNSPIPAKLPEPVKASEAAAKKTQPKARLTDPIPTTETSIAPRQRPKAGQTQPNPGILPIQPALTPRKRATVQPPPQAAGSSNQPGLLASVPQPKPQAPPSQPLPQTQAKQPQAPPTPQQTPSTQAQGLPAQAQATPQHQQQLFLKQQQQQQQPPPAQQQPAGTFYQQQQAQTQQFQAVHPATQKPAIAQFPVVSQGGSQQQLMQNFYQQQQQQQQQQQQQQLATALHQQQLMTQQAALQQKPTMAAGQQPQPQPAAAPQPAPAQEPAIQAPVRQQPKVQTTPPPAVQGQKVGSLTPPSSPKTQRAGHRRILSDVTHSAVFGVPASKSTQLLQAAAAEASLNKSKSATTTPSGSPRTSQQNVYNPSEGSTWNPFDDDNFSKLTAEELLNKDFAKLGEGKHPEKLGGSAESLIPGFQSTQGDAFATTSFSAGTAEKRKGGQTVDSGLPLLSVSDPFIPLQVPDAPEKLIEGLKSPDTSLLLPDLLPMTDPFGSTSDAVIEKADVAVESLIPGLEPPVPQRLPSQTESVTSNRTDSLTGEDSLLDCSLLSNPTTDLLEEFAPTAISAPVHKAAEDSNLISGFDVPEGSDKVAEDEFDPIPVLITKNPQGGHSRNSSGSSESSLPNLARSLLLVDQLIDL
# UniProt O94806: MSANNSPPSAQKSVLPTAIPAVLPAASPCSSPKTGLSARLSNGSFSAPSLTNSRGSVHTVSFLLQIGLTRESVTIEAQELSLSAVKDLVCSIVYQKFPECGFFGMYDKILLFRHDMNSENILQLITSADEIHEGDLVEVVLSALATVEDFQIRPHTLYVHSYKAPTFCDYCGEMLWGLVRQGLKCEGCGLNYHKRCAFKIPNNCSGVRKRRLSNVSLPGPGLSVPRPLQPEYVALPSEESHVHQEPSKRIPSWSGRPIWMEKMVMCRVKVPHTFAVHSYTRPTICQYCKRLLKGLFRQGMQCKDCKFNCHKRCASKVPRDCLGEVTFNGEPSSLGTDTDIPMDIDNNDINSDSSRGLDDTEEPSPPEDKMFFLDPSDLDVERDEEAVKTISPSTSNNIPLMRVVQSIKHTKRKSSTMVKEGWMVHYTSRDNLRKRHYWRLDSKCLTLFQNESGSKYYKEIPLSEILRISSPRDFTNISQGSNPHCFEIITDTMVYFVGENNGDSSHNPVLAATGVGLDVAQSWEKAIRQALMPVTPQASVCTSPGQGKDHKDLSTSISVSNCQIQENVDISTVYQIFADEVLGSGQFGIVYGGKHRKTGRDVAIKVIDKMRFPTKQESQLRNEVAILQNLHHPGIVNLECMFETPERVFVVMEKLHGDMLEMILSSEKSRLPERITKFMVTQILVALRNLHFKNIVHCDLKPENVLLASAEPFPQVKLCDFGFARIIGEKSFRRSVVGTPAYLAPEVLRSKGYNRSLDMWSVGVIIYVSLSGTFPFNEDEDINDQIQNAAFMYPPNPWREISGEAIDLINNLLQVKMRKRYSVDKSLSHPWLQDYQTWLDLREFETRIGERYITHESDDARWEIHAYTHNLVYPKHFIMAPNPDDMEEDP
# UniProt P23219, 24-599: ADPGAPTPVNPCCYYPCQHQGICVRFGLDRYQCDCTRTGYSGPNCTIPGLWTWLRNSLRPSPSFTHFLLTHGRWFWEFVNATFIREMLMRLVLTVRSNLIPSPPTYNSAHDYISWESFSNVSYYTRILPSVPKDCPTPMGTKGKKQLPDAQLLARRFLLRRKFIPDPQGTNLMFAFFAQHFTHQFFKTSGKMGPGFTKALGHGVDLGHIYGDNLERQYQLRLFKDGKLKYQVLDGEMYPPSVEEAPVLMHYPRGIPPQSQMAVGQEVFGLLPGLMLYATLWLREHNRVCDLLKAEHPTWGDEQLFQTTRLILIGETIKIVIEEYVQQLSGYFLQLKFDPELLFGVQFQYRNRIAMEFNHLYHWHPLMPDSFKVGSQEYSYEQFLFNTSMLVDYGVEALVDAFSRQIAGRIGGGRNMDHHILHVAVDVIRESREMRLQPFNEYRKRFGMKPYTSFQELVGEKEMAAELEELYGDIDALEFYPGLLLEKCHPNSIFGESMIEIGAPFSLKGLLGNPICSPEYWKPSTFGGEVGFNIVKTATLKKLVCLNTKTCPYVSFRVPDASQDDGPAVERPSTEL
# UniProt Q8TDX7: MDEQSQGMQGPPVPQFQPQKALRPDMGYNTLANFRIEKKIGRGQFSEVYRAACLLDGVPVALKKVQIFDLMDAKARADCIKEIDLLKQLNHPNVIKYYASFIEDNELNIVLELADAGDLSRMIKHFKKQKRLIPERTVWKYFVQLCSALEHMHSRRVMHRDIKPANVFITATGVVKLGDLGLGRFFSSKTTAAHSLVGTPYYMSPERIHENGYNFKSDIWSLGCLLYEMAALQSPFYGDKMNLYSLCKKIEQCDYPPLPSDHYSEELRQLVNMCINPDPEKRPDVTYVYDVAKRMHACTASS
# UniProt Q9Y2U5: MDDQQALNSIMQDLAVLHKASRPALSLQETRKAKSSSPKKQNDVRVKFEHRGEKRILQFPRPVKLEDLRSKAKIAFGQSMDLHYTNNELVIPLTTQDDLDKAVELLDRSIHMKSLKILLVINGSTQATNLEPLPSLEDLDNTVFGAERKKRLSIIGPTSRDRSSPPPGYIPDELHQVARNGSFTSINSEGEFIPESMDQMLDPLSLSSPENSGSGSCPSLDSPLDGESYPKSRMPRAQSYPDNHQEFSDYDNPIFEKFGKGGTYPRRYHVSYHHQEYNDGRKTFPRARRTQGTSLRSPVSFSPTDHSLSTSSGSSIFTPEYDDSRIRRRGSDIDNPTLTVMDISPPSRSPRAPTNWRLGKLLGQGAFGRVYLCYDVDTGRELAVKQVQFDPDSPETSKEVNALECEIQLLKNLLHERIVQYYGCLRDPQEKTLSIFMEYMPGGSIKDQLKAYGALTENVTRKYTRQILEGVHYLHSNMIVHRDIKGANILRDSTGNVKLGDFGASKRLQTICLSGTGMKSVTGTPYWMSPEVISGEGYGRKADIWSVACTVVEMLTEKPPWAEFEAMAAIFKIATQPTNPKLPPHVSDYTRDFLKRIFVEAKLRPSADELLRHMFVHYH
# UniProt Q9H2X6: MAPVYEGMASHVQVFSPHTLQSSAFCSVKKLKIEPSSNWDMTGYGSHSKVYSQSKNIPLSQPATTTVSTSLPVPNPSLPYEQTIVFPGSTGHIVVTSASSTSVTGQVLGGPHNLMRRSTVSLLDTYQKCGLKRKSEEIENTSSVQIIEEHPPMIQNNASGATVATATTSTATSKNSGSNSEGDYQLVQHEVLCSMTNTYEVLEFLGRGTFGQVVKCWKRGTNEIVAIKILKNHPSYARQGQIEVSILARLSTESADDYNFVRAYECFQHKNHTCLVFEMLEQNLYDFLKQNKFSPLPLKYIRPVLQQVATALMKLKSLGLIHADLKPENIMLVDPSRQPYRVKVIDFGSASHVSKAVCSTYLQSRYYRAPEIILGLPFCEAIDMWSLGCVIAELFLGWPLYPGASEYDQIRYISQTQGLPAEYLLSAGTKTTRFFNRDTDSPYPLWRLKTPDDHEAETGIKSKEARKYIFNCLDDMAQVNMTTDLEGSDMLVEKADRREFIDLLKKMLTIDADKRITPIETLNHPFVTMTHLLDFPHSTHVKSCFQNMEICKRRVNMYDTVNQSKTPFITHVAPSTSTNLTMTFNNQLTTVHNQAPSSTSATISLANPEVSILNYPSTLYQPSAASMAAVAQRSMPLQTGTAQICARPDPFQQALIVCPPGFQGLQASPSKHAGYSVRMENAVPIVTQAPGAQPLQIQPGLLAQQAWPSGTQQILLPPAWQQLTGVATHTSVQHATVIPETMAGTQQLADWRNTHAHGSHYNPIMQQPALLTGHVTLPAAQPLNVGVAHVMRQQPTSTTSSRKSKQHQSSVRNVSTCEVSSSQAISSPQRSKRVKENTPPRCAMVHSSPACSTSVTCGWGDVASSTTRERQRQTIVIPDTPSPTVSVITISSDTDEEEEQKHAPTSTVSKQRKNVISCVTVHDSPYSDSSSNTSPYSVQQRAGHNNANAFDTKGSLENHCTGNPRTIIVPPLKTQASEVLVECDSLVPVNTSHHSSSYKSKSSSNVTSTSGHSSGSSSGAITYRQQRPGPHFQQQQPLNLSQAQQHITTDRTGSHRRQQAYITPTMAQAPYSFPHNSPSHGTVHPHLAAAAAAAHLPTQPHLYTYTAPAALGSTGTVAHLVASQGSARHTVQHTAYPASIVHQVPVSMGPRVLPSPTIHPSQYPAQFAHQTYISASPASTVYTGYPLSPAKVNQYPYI
# Legend:
# [1] = molecular target: LIMK1(h) (Homo sapiens, UniProt P53667); assay: biochemical
# [2] = tested on: ATPase, Na+/K+, Heart, Pig; details: 10 µM
# [3] = molecular target: RIPK2(h) (Homo sapiens, UniProt O43353); assay: biochemical
# [4] = molecular target: EphB4(h) (Homo sapiens, UniProt P54760); assay: biochemical
# [5] = molecular target: WNK3(h) (Homo sapiens, UniProt Q9BYP7); assay: biochemical
# [6] = molecular target: ASK1(h) (Homo sapiens, UniProt Q99683); assay: biochemical
# [7] = molecular target: STK39(h) (Homo sapiens, UniProt Q9UEW8); assay: biochemical
# [8] = molecular target: MEK2(h) (Homo sapiens, UniProt P36507); assay: biochemical
# [9] = molecular target: CHK1(h) (Homo sapiens, UniProt O14757); assay: biochemical
# [10] = molecular target: Pyk2(h) (Homo sapiens, UniProt Q14289); assay: biochemical
# [11] = molecular target: NEK9(h) (Homo sapiens, UniProt Q8TD19); assay: biochemical
# [12] = molecular target: TYK2(h) (Homo sapiens, UniProt P29597); assay: biochemical
# [13] = molecular target: STK32B(h) (Homo sapiens, UniProt Q9NY57); assay: biochemical
# [14] = molecular target: MST2(h) (Homo sapiens, UniProt Q13188); assay: biochemical
# [15] = molecular target: SIK3(h) (Homo sapiens, UniProt Q9Y2K2); assay: biochemical
# [16] = molecular target: SGK(h) (Homo sapiens, UniProt O00141); assay: biochemical
# [17] = molecular target: Rse(h) (Homo sapiens, UniProt Q06418); assay: biochemical
# [18] = molecular target: MOK(h) (Homo sapiens, UniProt Q9UQ07); assay: biochemical
# [19] = molecular target: NUAK2(h) (Homo sapiens, UniProt Q9H093); assay: biochemical
# [20] = molecular target: AAK1(h) (Homo sapiens, UniProt Q2M2I8); assay: biochemical
# [21] = molecular target: MARK4(h) (Homo sapiens, UniProt Q96L34); assay: biochemical
# [22] = molecular target: ALK6(h) (Homo sapiens, UniProt O00238); assay: biochemical
# [23] = molecular target: PKD3(h) (Homo sapiens, UniProt O94806); assay: biochemical
# [24] = tested on: Phosphodiesterase PDE4; details: 10 µM
# [25] = molecular target: MuSK(h) (Homo sapiens, UniProt O15146); assay: biochemical
# [26] = molecular target: PhKgamma1(h) (Homo sapiens, UniProt Q16816); assay: biochemical
# [27] = molecular target: PKCdelta(h) (Homo sapiens, UniProt Q05655); assay: biochemical
# [28] = tested on: GABAA, Chloride Channel, TBOB; details: 10 µM
# [29] = molecular target: Fes(h) (Homo sapiens, UniProt P07332); assay: biochemical
# [30] = molecular target: Cyclooxygenase COX-1 (Homo sapiens, UniProt P23219); assay: biochemical; details: read-out: % Inh.
# [31] = molecular target: NEK7(h) (Homo sapiens, UniProt Q8TDX7); assay: biochemical
# [32] = molecular target: GRK3(h) (Homo sapiens, UniProt P35626); assay: biochemical
# [33] = molecular target: mTOR FKBP12(h) (Homo sapiens, UniProt P42345); assay: biochemical
# [34] = molecular target: MAK(h) (Homo sapiens, UniProt P20794); assay: biochemical
# [35] = molecular target: Itk(h) (Homo sapiens, UniProt Q08881); assay: biochemical
# [36] = molecular target: TTK(h) (Homo sapiens, UniProt P33981); assay: biochemical
# [37] = molecular target: MEKK2(h) (Homo sapiens, UniProt Q9Y2U5); assay: biochemical
# [38] = molecular target: USP14 (Proteasome-VS @ Kd) (Homo sapiens, UniProt P54578); assay: biochemical; details: read-out: Activity (% Control)
# [39] = molecular target: Txk(h) (Homo sapiens, UniProt P42681); assay: biochemical
# [40] = molecular target: TLK1(h) (Homo sapiens, UniProt Q9UKI8); assay: biochemical
# [41] = molecular target: USP4 (Homo sapiens, UniProt Q13107); assay: biochemical; details: read-out: Activity (% Control)
# [42] = molecular target: HIPK2(h) (Homo sapiens, UniProt Q9H2X6); assay: biochemical
compound,measurement,setting,value
"CC(C)C[C@@H](NC(=O)C1(C(F)(F)F)CCCCC1)C(=O)Nc1nnc(Cc2ccc(C#N)cc2)s1 [Compound 21, N-[(1R)-1-[[5-[(4-Cyanophenyl)methyl]-1,3,4-thiadiazol-2-yl]carbamoyl]-3-methyl-butyl]-1-(trifluoromethyl)cyclohexanecarboxamide]",inhibition at 10 µM,[1],-2.38%
same,% Inh.,[2],-1%
same,inhibition at 10 µM,[3],0.2%
same,inhibition at 10 µM,[4],-25.6%
same,inhibition at 10 µM,[5],-17.6%
same,inhibition at 10 µM,[6],3.07%
same,inhibition at 10 µM,[7],-2.66%
same,inhibition at 10 µM,[8],5.61%
same,inhibition at 10 µM,[9],-13.9%
same,inhibition at 10 µM,[10],9.9%
same,inhibition at 10 µM,[11],2.31%
same,inhibition at 10 µM,[12],7.17%
same,inhibition at 10 µM,[13],10.5%
same,inhibition at 10 µM,[14],4.72%
same,inhibition at 10 µM,[15],9.94%
same,inhibition at 10 µM,[16],-0.2%
same,inhibition at 10 µM,[17],13.7%
same,inhibition at 10 µM,[18],7.14%
same,inhibition at 10 µM,[19],41%
same,inhibition at 10 µM,[20],4.09%
same,inhibition at 10 µM,[21],9.89%
same,inhibition at 10 µM,[22],14.6%
same,inhibition at 10 µM,[23],-7.09%
same,% Inh.,[24],1
same,inhibition at 10 µM,[25],6.14%
same,inhibition at 10 µM,[26],10.5%
same,inhibition at 10 µM,[27],7.71%
same,% Inh.,[28],9%
same,inhibition at 10 µM,[29],8.18%
same,inhibition at 10 µM,[30],-2%
same,inhibition at 10 µM,[31],0.69%
same,inhibition at 10 µM,[32],1.85%
same,inhibition at 10 µM,[33],2.46%
same,inhibition at 10 µM,[34],2.05%
same,inhibition at 10 µM,[35],-2.46%
same,inhibition at 10 µM,[36],5.09%
same,inhibition at 10 µM,[37],4.74%
same,remaining activity at 1 µM,[38],103%
same,remaining activity at 10 µM,[38],98%
same,inhibition at 10 µM,[39],-39.2%
same,inhibition at 10 µM,[40],4.27%
same,remaining activity at 10 µM,[41],98%
same,remaining activity at 50 µM,[41],93%
same,inhibition at 10 µM,[42],11.5%
"CC(C)C[C@H](NC(=O)C1(C(F)(F)F)CCCCC1)C(=O)Nc1nnc(Cc2ccc(C#N)cc2)s1 [Compound 22, CC(C)C[C@H](NC(=O)C1(CCCCC1)C(F)(F)F)C(=O)Nc2nnc(Cc3ccc(cc3)C#N)s2]",inhibition at 10 µM,[1],0.51%
same,% Inh.,[2],-3%
same,inhibition at 10 µM,[3],6.19%
same,inhibition at 10 µM,[4],-37.8%
same,inhibition at 10 µM,[5],-4.01%
same,inhibition at 10 µM,[6],2.31%
same,inhibition at 10 µM,[7],-9.43%
same,inhibition at 10 µM,[8],4.53%
same,inhibition at 10 µM,[9],-6.25%
same,inhibition at 10 µM,[10],-5.98%
same,inhibition at 10 µM,[11],-1.19%
same,inhibition at 10 µM,[12],10.7%
same,inhibition at 10 µM,[13],10.7%
same,inhibition at 10 µM,[14],-10.3%
same,inhibition at 10 µM,[15],1.46%
same,inhibition at 10 µM,[16],-7.07%
same,inhibition at 10 µM,[17],13.6%
same,inhibition at 10 µM,[18],14.9%
same,inhibition at 10 µM,[19],17.9%
same,inhibition at 10 µM,[20],3.69%
same,inhibition at 10 µM,[21],3.52%
same,inhibition at 10 µM,[22],26.8%
same,inhibition at 10 µM,[23],7.79%
same,% Inh.,[24],1
same,inhibition at 10 µM,[25],1.15%
same,inhibition at 10 µM,[26],6.48%
same,inhibition at 10 µM,[27],5.78%
same,% Inh.,[28],14%
same,inhibition at 10 µM,[29],1.46%
same,inhibition at 10 µM,[30],3%
same,inhibition at 10 µM,[31],-1.75%
same,inhibition at 10 µM,[32],3.53%
same,inhibition at 10 µM,[33],3%
same,inhibition at 10 µM,[34],-2.88%
same,inhibition at 10 µM,[35],-6.13%
same,inhibition at 10 µM,[36],2.5%
same,inhibition at 10 µM,[37],-0.26%
same,remaining activity at 1 µM,[38],100%
same,remaining activity at 10 µM,[38],112%
same,inhibition at 10 µM,[39],-7.12%
same,inhibition at 10 µM,[40],3.93%
same,remaining activity at 10 µM,[41],98%
same,remaining activity at 50 µM,[41],91%
same,inhibition at 10 µM,[42],0.7%
